Some results for these compounds are left out of this collection, so the calls shown say nothing about other tests.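 These data come from cells grown in 96-well plates and exposed to compound for 48 hours at five concentrations. At the GI50, growth is halved. At the TGI there is no net growth.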
Tests used:
Test in all cases: NCI tumour cell line growth inhibition, 48 h
SK-MEL-28 melanoma = test system: SK-MEL-28 melanoma
MDA-MB-231 breast = test system: MDA-MB-231 breast
DU-145 prostate = test system: DU-145 prostate
SF-539 CNS = test system: SF-539 CNS
K-562 leukemia = test system: K-562 leukemia
SW-620 colon = test system: SW-620 colon
SN12C renal = test system: SN12C renal
MDA-N = test system: MDA-N
SR leukemia = test system: SR leukemia
M14 melanoma = test system: M14 melanoma
U251 CNS = test system: U251 CNS
HT29 colon = test system: HT29 colon
HCT-15 colon = test system: HCT-15 colon
OVCAR-8 ovarian = test system: OVCAR-8 ovarian
SF-295 CNS = test system: SF-295 CNS
RPMI-8226 leukemia = test system: RPMI-8226 leukemia
UACC-257 melanoma = test system: UACC-257 melanoma
A498 renal = test system: A498 renal
UACC-62 melanoma = test system: UACC-62 melanoma
HL-60(TB) leukemia = test system: HL-60(TB) leukemia
HS 578T breast = test system: HS 578T breast
ACHN renal = test system: ACHN renal
OVCAR-5 ovarian = test system: OVCAR-5 ovarian
NCI/ADR-RES ovarian = test system: NCI/ADR-RES ovarian
IGROV1 ovarian = test system: IGROV1 ovarian
MCF7 breast = test system: MCF7 breast
786-0 renal = test system: 786-0 renal
SNB-19 CNS = test system: SNB-19 CNS
NCI-H460 lung = test system: NCI-H460 lung

Q: C/C=C\C(O)(C(=O)OC1CN2CCC1CC2)C1CCCC1 (configuration not stated) was tested. Which TGI (SK-MEL-28 melanoma) did it give?
A: > 100 µM

Q: And the GI50 (MDA-MB-231 breast)?
A: > 100 µM

Q: And the TGI (MDA-MB-231 breast)?
A: > 100 µM

Q: And the GI50 (DU-145 prostate)?
A: > 100 µM

Q: And the TGI (DU-145 prostate)?
A: > 100 µM

Q: And the GI50 (SF-539 CNS)?
A: > 100 µM

Q: What about the TGI (SF-539 CNS) of the same compound?
A: > 100 µM

Q: What about the GI50 (K-562 leukemia) of the same compound?
A: > 100 µM

Q: What about the TGI (K-562 leukemia) of the same compound?
A: > 100 µM

Q: And the GI50 (SW-620 colon)?
A: 45 µM

Q: What about the TGI (SW-620 colon) of the same compound?
A: > 100 µM

Q: What about the GI50 (SN12C renal) of the same compound?
A: > 100 µM

Q: And the TGI (SN12C renal)?
A: > 100 µM

Q: And the GI50 (MDA-N)?
A: > 100 µM

Q: What about the TGI (MDA-N) of the same compound?
A: > 100 µM

Q: And the GI50 (SR leukemia)?
A: > 100 µM

Q: And the TGI (SR leukemia)?
A: > 100 µM

Q: And the GI50 (M14 melanoma)?
A: > 100 µM

Q: And the TGI (M14 melanoma)?
A: > 100 µM

Q: What about the GI50 (U251 CNS) of the same compound?
A: > 100 µM

Q: What about the TGI (U251 CNS) of the same compound?
A: > 100 µM

Q: What about the GI50 (HT29 colon) of the same compound?
A: > 100 µM

Q: And the TGI (HT29 colon)?
A: > 100 µM

Q: What about the GI50 (HCT-15 colon) of the same compound?
A: > 100 µM

Q: And the TGI (HCT-15 colon)?
A: > 100 µM

Q: And the GI50 (OVCAR-8 ovarian)?
A: > 100 µM

Q: And the TGI (OVCAR-8 ovarian)?
A: > 100 µM

Q: What about the GI50 (SF-295 CNS) of the same compound?
A: > 100 µM

Q: What about the TGI (SF-295 CNS) of the same compound?
A: > 100 µM

Q: And the GI50 (RPMI-8226 leukemia)?
A: > 100 µM

Q: What about the TGI (RPMI-8226 leukemia) of the same compound?
A: > 100 µM

Q: And the GI50 (UACC-257 melanoma)?
A: > 100 µM

Q: And the TGI (UACC-257 melanoma)?
A: > 100 µM

Q: And the GI50 (A498 renal)?
A: > 100 µM

Q: What about the TGI (A498 renal) of the same compound?
A: > 100 µM

Q: And the GI50 (UACC-62 melanoma)?
A: > 100 µM

Q: What about the TGI (UACC-62 melanoma) of the same compound?
A: > 100 µM

Q: And the GI50 (HL-60(TB) leukemia)?
A: > 100 µM

Q: And the TGI (HL-60(TB) leukemia)?
A: > 100 µM

Q: And the GI50 (HS 578T breast)?
A: > 100 µM

Q: And the TGI (HS 578T breast)?
A: > 100 µM

Q: And the GI50 (ACHN renal)?
A: > 100 µM

Q: And the TGI (ACHN renal)?
A: > 100 µM

Q: What about the GI50 (OVCAR-5 ovarian) of the same compound?
A: > 100 µM

Q: And the TGI (OVCAR-5 ovarian)?
A: > 100 µM

Q: And the GI50 (NCI/ADR-RES ovarian)?
A: > 100 µM

Q: What about the TGI (NCI/ADR-RES ovarian) of the same compound?
A: > 100 µM

Q: And the GI50 (IGROV1 ovarian)?
A: > 100 µM

Q: And the TGI (IGROV1 ovarian)?
A: > 100 µM

Q: And the GI50 (MCF7 breast)?
A: > 100 µM

Q: And the TGI (MCF7 breast)?
A: > 100 µM

Q: What about the GI50 (786-0 renal) of the same compound?
A: > 100 µM

Q: What about the TGI (786-0 renal) of the same compound?
A: > 100 µM

Q: And the GI50 (SNB-19 CNS)?
A: 59.2 µM

Q: And the TGI (SNB-19 CNS)?
A: > 100 µM

Q: And the GI50 (NCI-H460 lung)?
A: > 100 µM

Q: And the TGI (NCI-H460 lung)?
A: > 100 µM
